The results in this text go back to patent US20070060638A1, “Methods and therapies for potentiating therapeutic activities of a cannabinoid receptor agonist via administration of a cannabinoid receptor antagonist” (priority 2005, published 2007).

Sequences of proteins named here, by UniProt entry; tags and fusion partners are left off.
UniProt P20272, whole entry: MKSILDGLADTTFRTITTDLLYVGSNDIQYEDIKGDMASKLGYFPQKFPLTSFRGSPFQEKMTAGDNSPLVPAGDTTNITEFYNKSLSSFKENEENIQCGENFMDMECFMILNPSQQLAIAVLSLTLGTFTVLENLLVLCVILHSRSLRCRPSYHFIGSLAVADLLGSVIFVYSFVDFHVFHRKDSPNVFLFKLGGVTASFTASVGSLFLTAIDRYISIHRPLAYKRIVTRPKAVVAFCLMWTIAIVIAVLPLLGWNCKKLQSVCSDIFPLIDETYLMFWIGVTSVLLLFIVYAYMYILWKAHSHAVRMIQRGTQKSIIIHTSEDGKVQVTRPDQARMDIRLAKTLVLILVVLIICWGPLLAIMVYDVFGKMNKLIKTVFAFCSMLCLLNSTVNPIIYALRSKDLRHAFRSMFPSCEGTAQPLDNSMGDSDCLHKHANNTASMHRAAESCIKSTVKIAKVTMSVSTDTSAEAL

For this assay, the target named is CB1 receptors (Rattus norvegicus, UniProt P20272). The note with it: striatal tissue, ultra-low dose SR 141716 combined with WIN, chronic treatment.

As to `Cc1c(C(=O)NN2CCCCC2)nn(-c2ccc(Cl)cc2Cl)c1-c1ccc(Cl)cc1` [SR, N-(Piperidin-1-yl)-5-(4-chlorophenyl)-1-(2,4-dichlorophenyl)-4-methyl-1H-pyrazole-3-carboxamide], the “effect on WIN-induced CB1 receptor G-protein coupling switch” value was “prevented this coupling switch”.
